According to PubChem BioAssay (NCI):
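Following 48 hours of exposure in 96-well plates, responses at five concentrations were used to interpolate endpoints linearly. GI50: concentration for 50% inhibition of growth. TGI denotes the concentration required for complete inhibition of growth.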

Key:
Test in all cases: growth of human tumour cells (NCI), 48 h
KM12 colon = test system: KM12 colon
T-47D breast = test system: T-47D breast
MDA-MB-231 breast = test system: MDA-MB-231 breast
HT29 colon = test system: HT29 colon
TK-10 renal = test system: TK-10 renal
MCF7 breast = test system: MCF7 breast
SK-MEL-5 melanoma = test system: SK-MEL-5 melanoma
DU-145 prostate = test system: DU-145 prostate
OVCAR-5 ovarian = test system: OVCAR-5 ovarian
SK-MEL-28 melanoma = test system: SK-MEL-28 melanoma
SR leukemia = test system: SR leukemia
HCT-15 colon = test system: HCT-15 colon
SK-MEL-2 melanoma = test system: SK-MEL-2 melanoma
ACHN renal = test system: ACHN renal
A549 NSCLC = test system: A549 NSCLC
SN12C renal = test system: SN12C renal
IGROV1 ovarian = test system: IGROV1 ovarian
SNB-19 CNS = test system: SNB-19 CNS
NCI-H322M lung = test system: NCI-H322M lung
SNB-75 CNS = test system: SNB-75 CNS
CAKI-1 renal = test system: CAKI-1 renal
HCT-116 colon = test system: HCT-116 colon
OVCAR-8 ovarian = test system: OVCAR-8 ovarian
UACC-257 melanoma = test system: UACC-257 melanoma
MALME-3M melanoma = test system: MALME-3M melanoma
LOX IMVI melanoma = test system: LOX IMVI melanoma
NCI-H226 lung = test system: NCI-H226 lung
CCRF-CEM leukemia = test system: CCRF-CEM leukemia
SW-620 colon = test system: SW-620 colon
OVCAR-3 ovarian = test system: OVCAR-3 ovarian
NCI-H460 lung = test system: NCI-H460 lung
COLO 205 colon = test system: COLO 205 colon
SF-539 CNS = test system: SF-539 CNS
HOP-92 NSCLC = test system: HOP-92 NSCLC
SF-295 CNS = test system: SF-295 CNS
HCC-2998 colon = test system: HCC-2998 colon
PC-3 prostate = test system: PC-3 prostate
K-562 leukemia = test system: K-562 leukemia
NCI-H23 lung = test system: NCI-H23 lung
NCI/ADR-RES ovarian = test system: NCI/ADR-RES ovarian
HL-60(TB) leukemia = test system: HL-60(TB) leukemia
NCI-H522 lung = test system: NCI-H522 lung
UO-31 renal = test system: UO-31 renal
A498 renal = test system: A498 renal
HS 578T breast = test system: HS 578T breast
EKVX NSCLC = test system: EKVX NSCLC
RXF 393 renal = test system: RXF 393 renal
MDA-MB-435 = test system: MDA-MB-435
786-0 renal = test system: 786-0 renal
M14 melanoma = test system: M14 melanoma
OVCAR-4 ovarian = test system: OVCAR-4 ovarian
HOP-62 NSCLC = test system: HOP-62 NSCLC
RPMI-8226 leukemia = test system: RPMI-8226 leukemia
MOLT-4 leukemia = test system: MOLT-4 leukemia
U251 CNS = test system: U251 CNS
SF-268 CNS = test system: SF-268 CNS
UACC-62 melanoma = test system: UACC-62 melanoma

Molecule `O=[N+]([O-])c1cc([N+](=O)[O-])c(Nc2ccc(Cl)cc2)c([N+](=O)[O-])c1` has a GI50 (KM12 colon) of 2560 nM, a TGI (KM12 colon) of 7.41 µM and a GI50 (T-47D breast) of 831 nM. The TGI (T-47D breast) was 55 µM, the GI50 (MDA-MB-231 breast) was 2610 nM and the TGI (MDA-MB-231 breast) was 8.66 µM. The GI50 (HT29 colon) was 2660 nM, the TGI (HT29 colon) was 8.55 µM and the GI50 (TK-10 renal) was 5.2 µM. For the same molecule, the TGI (TK-10 renal) was 35.4 µM, the GI50 (MCF7 breast) was 2510 nM and the TGI (MCF7 breast) was 11.1 µM. It also gave a GI50 (SK-MEL-5 melanoma) of 8.06 µM, a TGI (SK-MEL-5 melanoma) of 20.7 µM and a GI50 (DU-145 prostate) of 4.57 µM. For the same molecule, the TGI (DU-145 prostate) was 18.2 µM, the GI50 (OVCAR-5 ovarian) was 2840 nM and the TGI (OVCAR-5 ovarian) was 10.7 µM. It also gave a GI50 (SK-MEL-28 melanoma) of 12.1 µM, a TGI (SK-MEL-28 melanoma) of 37.1 µM and a GI50 (SR leukemia) of 2400 nM. For the same molecule, the TGI (SR leukemia) was 9.86 µM, the GI50 (HCT-15 colon) was 2240 nM and the TGI (HCT-15 colon) was 12 µM. For the same molecule, the GI50 (SK-MEL-2 melanoma) was 13.6 µM, the TGI (SK-MEL-2 melanoma) was 33.4 µM and the GI50 (ACHN renal) was 1620 nM. For the same molecule, the TGI (ACHN renal) was 3.58 µM, the GI50 (A549 NSCLC) was 3.83 µM and the TGI (A549 NSCLC) was 15.5 µM. It also gave a GI50 (SN12C renal) of 3.64 µM, a TGI (SN12C renal) of 19.6 µM and a GI50 (IGROV1 ovarian) of 4.58 µM. For the same molecule, the TGI (IGROV1 ovarian) was over 100 µM, the GI50 (SNB-19 CNS) was 4.75 µM and the TGI (SNB-19 CNS) was 33.3 µM. For the same molecule, the GI50 (NCI-H322M lung) was 4.6 µM, the TGI (NCI-H322M lung) was over 100 µM and the GI50 (SNB-75 CNS) was 5.85 µM. The TGI (SNB-75 CNS) was 30.7 µM, the GI50 (CAKI-1 renal) was 3.33 µM and the TGI (CAKI-1 renal) was over 100 µM. For the same molecule, the GI50 (HCT-116 colon) was 1580 nM, the TGI (HCT-116 colon) was 3.12 µM and the GI50 (OVCAR-8 ovarian) was 1830 nM. The TGI (OVCAR-8 ovarian) was 16.3 µM, the GI50 (UACC-257 melanoma) was 3.88 µM and the TGI (UACC-257 melanoma) was 15.7 µM. The GI50 (MALME-3M melanoma) was 2670 nM, the TGI (MALME-3M melanoma) was 12.1 µM and the GI50 (LOX IMVI melanoma) was 2410 nM. For the same molecule, the TGI (LOX IMVI melanoma) was 11.3 µM, the GI50 (NCI-H226 lung) was 2980 nM and the TGI (NCI-H226 lung) was 14.5 µM. For the same molecule, the GI50 (CCRF-CEM leukemia) was 2940 nM, the TGI (CCRF-CEM leukemia) was over 100 µM and the GI50 (SW-620 colon) was 2780 nM. For the same molecule, the TGI (SW-620 colon) was 10.8 µM, the GI50 (OVCAR-3 ovarian) was 1970 nM and the TGI (OVCAR-3 ovarian) was 5.4 µM. For the same molecule, the GI50 (NCI-H460 lung) was 2650 nM, the TGI (NCI-H460 lung) was 10.4 µM and the GI50 (COLO 205 colon) was 1750 nM. For the same molecule, the TGI (COLO 205 colon) was 3.98 µM, the GI50 (SF-539 CNS) was 3.27 µM and the TGI (SF-539 CNS) was 15.9 µM. The GI50 (HOP-92 NSCLC) was 1130 nM, the TGI (HOP-92 NSCLC) was 6.32 µM and the GI50 (SF-295 CNS) was 2230 nM. The TGI (SF-295 CNS) was 8.18 µM, the GI50 (HCC-2998 colon) was 3.44 µM and the TGI (HCC-2998 colon) was 14.1 µM. For the same molecule, the GI50 (PC-3 prostate) was 2340 nM, the TGI (PC-3 prostate) was 14.4 µM and the GI50 (K-562 leukemia) was 2340 nM. For the same molecule, the TGI (K-562 leukemia) was 10.7 µM, the GI50 (NCI-H23 lung) was 2080 nM and the TGI (NCI-H23 lung) was 7.87 µM. For the same molecule, the GI50 (NCI/ADR-RES ovarian) was 2250 nM, the TGI (NCI/ADR-RES ovarian) was over 100 µM and the GI50 (HL-60(TB) leukemia) was 1830 nM. It also gave a TGI (HL-60(TB) leukemia) of 5.11 µM, a GI50 (NCI-H522 lung) of 1650 nM and a TGI (NCI-H522 lung) of 3.91 µM. It also gave a GI50 (UO-31 renal) of 2020 nM, a TGI (UO-31 renal) of 11.4 µM and a GI50 (A498 renal) of 2940 nM. It also gave a TGI (A498 renal) of 18.3 µM, a GI50 (HS 578T breast) of 2250 nM and a TGI (HS 578T breast) of 13.3 µM. For the same molecule, the GI50 (EKVX NSCLC) was 3.04 µM, the TGI (EKVX NSCLC) was 14.9 µM and the GI50 (RXF 393 renal) was 1980 nM. The TGI (RXF 393 renal) was 4.77 µM, the GI50 (MDA-MB-435) was 4.96 µM and the TGI (MDA-MB-435) was 19 µM. The GI50 (786-0 renal) was 6.69 µM, the TGI (786-0 renal) was 19.5 µM and the GI50 (M14 melanoma) was 3.4 µM. It also gave a TGI (M14 melanoma) of 14 µM, a GI50 (OVCAR-4 ovarian) of 2670 nM and a TGI (OVCAR-4 ovarian) of 12.6 µM. For the same molecule, the GI50 (HOP-62 NSCLC) was 3.84 µM, the TGI (HOP-62 NSCLC) was 26.5 µM and the GI50 (RPMI-8226 leukemia) was 1750 nM. It also gave a TGI (RPMI-8226 leukemia) of 7.41 µM, a GI50 (MOLT-4 leukemia) of 3.07 µM and a TGI (MOLT-4 leukemia) of 8.22 µM. The GI50 (U251 CNS) was 1220 nM, the TGI (U251 CNS) was 8.55 µM and the GI50 (SF-268 CNS) was 4.01 µM. For the same molecule, the TGI (SF-268 CNS) was 42.1 µM, the GI50 (UACC-62 melanoma) was 3.21 µM and the TGI (UACC-62 melanoma) was 16 µM.
